The values that follow are results of earlier work, collected in paper PMC3946342, “Evaluating Molecular Mechanism of Hypotensive Peptides Interactions with Renin and Angiotensin Converting Enzyme” (PLoS ONE, 2014).

SMILES strings stand for the structures.

This data set deals with ACE. Also on record: method as in earlier work. Particulars: previously determined ref 8; read-out: IC50 for ACE inhibition; cited from earlier work.

What is called IC50 is the concentration that gives 50% inhibition. For `CC(C)C[C@H](N)C(=O)N[C@@H](Cc1ccc(O)cc1)C(=O)O` [LY, Leu-Tyr], the IC50 was 107 µM.
